miR-21 reporter: miR-21 reporter, rising signal; 340,000 tested, under 10 active; Potency, µM (highest dose often 38.3 µM), for the others: top-dose reporter change, positive = more light; HeLa miR-21 FLuc reporter, luciferase, 48 h; active = well fitted rising curve with a large enough effect; inconclusive = small, poorly fitted or top-dose-only effect; inactive = no such curve, though single readings can be large or run the other way;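 further: % of control where 0% means no effect; miR-21 action dims this reporter so a rising signal means less miR-21 action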
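HeLa miR-21-FLuc reporter line, endogenous miR-21; 2000 cells/well in DMEM/10% FBS; compound titration up to ~40uM final, 48 h, 37 degree Celsius; luciferase detection reagent, 15 min lysis, CCD luminescence.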
TDP1 cell noCPT: qHTS for Inhibitors of human tyrosyl-DNA phosphodiesterase 1 (TDP1): qHTS in cells in absence of CPT | DT40 Tdp1-/- hTDP1 cells, no CPT, ATP luminescence, 48 h | Potency, µM (series often up to 46.2 µM), for the others: top-dose activity change, negative = growth inhibition, most hits filed as inhibitors | 15% of 420,000 active | AID 686978, 2013; also: potency is read from the fitted curve at half-maximal effect; % is scaled to controls: 0 for no effect and ±100 for the full control effect; nearly all actives have a fitted effect of over 55% in size
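Growth of hTDP1-complemented DT40 Tdp1-knockout cells is measured by ATP luminescence after at least 48 hr compound exposure at 37 °C, with DMSO substituting for the 20 nM CPT used in the parallel screen.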
TDP1 cell CPT: growth inhibition of DT40 Tdp1-/-;hTDP1 cells with camptothecin (screen for TDP1 inhibitors); chicken DT40 Tdp1-/-;hTDP1 cells + 20 nM CPT, ATP luminescence, 48 h; Potency, µM (titrated, usually from 46.2 µM), inactives show top-dose activity change, negative = growth inhibition, most hits filed as inhibitors; 12% of 420,000 active; also: potency is read from the fitted curve at half-maximal effect; % is scaled to controls: 0 for no effect and ±100 for the full control effect; nearly all actives have a fitted effect of over 55% in size
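Chicken DT40 Tdp1-/- cells complemented with human TDP1, 400 cells/well, exposed to compounds plus 20 nM camptothecin for at least 48 h at 37 C; viability read as ATP content by CellTiter-Glo luminescence.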
uPA surface inh: cell surface uPA generation inhibition | cell surface uPA generation assay, qHTS | Potency, µM (top dose mostly 38.3 µM), inactives show at the top dose activity change, negative = inhibition, actives largely listed as inhibitors | 0.31% of 330,000 active | AID 540303; active = well fitted inhibition curve with a large enough effect; inconclusive = small, poorly fitted or top-dose-only effect; inactive = no such curve, though single readings can be large or run the other way; tested in mouse RAW 264.7 cells; also: potency is read from the fitted curve at half-maximal effect; % is scaled to controls: 0 for no effect and ±100 for the full control effect; nearly all actives have a fitted effect of over 55% in size
TDP1 block: blocks human tyrosyl-DNA phosphodiesterase 1. Q9NUW8. recombinant TDP1, AlphaScreen DNA substrate cleavage. Potency, µM (series often up to 130 µM), without a hit: top-dose activity change, negative = inhibition, actives largely listed as inhibitors. 0.28% of 350,000 active; also: potency is read from the fitted curve at half-maximal effect; % is scaled to controls: 0 for no effect and ±100 for the full control effect; nearly all actives have a fitted effect of over 40% in size
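Signal: AlphaScreen proximity between streptavidin donor and anti-FITC acceptor beads on intact substrate. Reaction: Tdp1 1 nM, substrate 15 nM final, 5 min RT after 15 min compound preincubation.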
Numbers without * were called inactive; ? = inconclusive; nt = not tested or not shown; ! = repeats disagree; [ ] = dose if it differs, or a comment. Hits are enriched below; roughly 16% of the tested compounds scored in any of these assays. Unless noted, calls follow the shape of the dose curve; as a rule, active = well fitted curve in the direction sought with a large enough effect; inconclusive = small, poorly fitted or top-dose-only effect, or another doubt; inactive = no such curve, though single readings can be large; an effect the other way counts as inactive or inconclusive.

Letter code – A = miR-21 reporter; B = TDP1 cell noCPT; C = TDP1 cell CPT; D = uPA surface inh; E = TDP1 block
1: CCOC(=O)C[C@H]1c2ccc(C(F)(F)F)cc2S(=O)(=O)N1Cc1ccccc1
  A: nt	B: ?	C: ?	D: -1%	E: nt

2: COc1ccc(CN2[C@@H](CC(=O)O)c3ccccc3S2(=O)=O)cc1
  A: nt	B: 2.8µM*!	C: ?	D: -4%	E: nt

3: CCOC(=O)/C=C/c1ccc2c(c1)S(=O)(=O)N(Cc1ccc(OC)cc1)[C@H]2CC(=O)OCC
  A: nt	B: 13µM*	C: 21µM*	D: -9%	E: nt

4: O=C(O)C[C@H]1c2ccccc2S(=O)(=O)N1c1ccccc1
  A: nt	B: -25%	C: ?	D: 3%	E: nt

5: COc1ccc(CN2[C@@H](CC(C)=O)c3cc(C(F)(F)F)ccc3S2(=O)=O)cc1
  A: nt	B: 21µM*	C: 16µM*	D: 0%	E: nt

6: CCOC(=O)C[C@H]1c2ccccc2S(=O)(=O)N1Cc1ccc(Cl)cc1
  A: nt	B: 18µM*	C: 11µM*	D: -18%	E: nt

7: CCOC(=O)C[C@H]1c2cc(C(F)(F)F)ccc2S(=O)(=O)N1Cc1ccccc1
  A: nt	B: ?	C: ?	D: -28%	E: nt

8: CC1(C)CC(NC(=O)c2cc([N+](=O)[O-])cc([N+](=O)[O-])c2)CC(C)(C)N1
  A: 9%	B: ?	C: ?	D: -6%	E: nt

9: O=C(CCN1C(=O)c2ccccc2C1=O)NCc1ccc(Cl)cc1
  A: 1%	B: 4%	C: 9%	D: 6%	E: nt

10: CCCCNC(=O)OCC(CC)NC(=O)OC(C)C (centres undefined)
  A: -1%	B: -1%	C: -5%	D: -5%	E: 2%

11: COc1cc(N2CCCC2)c(OC)cc1C=O
  A: 11%	B: ?	C: ?	D: 13%	E: 6%

12: COc1cc(N(C)C)c(OC)cc1C=O
  A: nt	B: 11µM*	C: 16µM*	D: nt	E: nt

13: COc1cc(N(C)C)ccc1/C=C1\C=Cc2ccccc21
  A: nt	B: 16µM*	C: ?	D: nt	E: nt

14: COc1cc(N(C)C)c(OC)cc1/C=C1\C=Cc2ccccc21
  A: nt	B: 13µM*	C: ?	D: nt	E: nt

15: CC1NS(=O)(=O)c2cc([N+](=O)[O-])ccc21 (centres undefined)
  A: nt	B: -22%	C: -5%	D: nt	E: nt

Overlap with the part before: 3 entries, then new ones.
Letter code – A = miR-21 reporter; B = TDP1 cell noCPT; C = TDP1 cell CPT; D = uPA surface inh; E = TDP1 block
13: COc1cc(N(C)C)ccc1/C=C1\C=Cc2ccccc21
  A: nt	B: 16µM*	C: ?	D: nt	E: nt

14: COc1cc(N(C)C)c(OC)cc1/C=C1\C=Cc2ccccc21
  A: nt	B: 13µM*	C: ?	D: nt	E: nt

15: CC1NS(=O)(=O)c2cc([N+](=O)[O-])ccc21 (centres undefined)
  A: nt	B: -22%	C: -5%	D: nt	E: nt

16: CC1CCN(C(=O)c2nc[nH]c2C(=O)O[C@H](C)c2ccccc2)CC1
  A: nt	B: -14%	C: 0%	D: -1%	E: 1%

17: CCOc1cc(C2c3c(oc4cc(C)cc(C)c4c3=O)C(=O)N2CCO)ccc1O (centres undefined)
  A: -19%	B: ?	C: -25%	D: nt	E: 0%

18: CC(=O)c1c(-c2ccccc2)c2cc([N+](=O)[O-])ccc2[nH]c1=O
  A: 22%	B: 15µM*	C: ?	D: ?	E: nt

19: CC(=O)c1c(C)nc2ccc([N+](=O)[O-])cc2c1-c1ccccc1
  A: 13%	B: ?	C: ?	D: 2%	E: 6%

20: Cc1cc(/C=C2\Cc3ccccc3C2=O)c(C)n1-c1ccccc1
  A: -23%	B: 13µM*	C: ?	D: -17%	E: 5%

21: CC1=NN(c2ccccc2)C(=O)/C1=C\c1cc(C)n(-c2ccccc2)c1C
  A: 1%	B: 23µM*	C: ?	D: 7%	E: 3%

22: Cc1cc(C=C2C(=O)c3ccccc3C2=O)c(C)n1-c1ccccc1
  A: -22%	B: ?	C: ?	D: nt	E: -2%

23: CCOc1ccc(C(CC(=O)O)NS(=O)(=O)c2ccc(C)cc2)cc1OC (centres undefined)
  A: -1%	B: ?	C: 21µM*	D: 7%	E: -2%

24: Cc1nc2nc(NCc3cccs3)nn2c(C)c1Cl
  A: -43%	B: 4%	C: -20%	D: nt	E: 6%

25: O=[N+]([O-])c1ccc2c(c1)ncn2CCc1ccccc1
  A: -5%	B: -4%	C: -16%	D: -1%	E: nt

26: N#Cc1c2ccc(O)cc2n2ccccc12
  A: 20%	B: 8.2µM*	C: ?	D: nt	E: -7%

27: O=C(Cn1c(-c2cccs2)cc2cc(F)ccc21)NCCCN1CCN(c2ccccc2F)CC1
  A: 17%	B: 21µM*	C: 21µM*	D: nt	E: 2%

28: O=C(Cn1c(=O)c2cccn2c2ccc(F)cc21)NCCCN1CCN(c2ccccc2F)CC1
  A: -8%	B: ?	C: ?	D: -2%	E: 6%

29: O=C(Cn1c(-c2cccs2)cc2ccccc21)NCCCN1CCN(c2ccccc2F)CC1
  A: ?	B: 16µM*	C: 23µM*	D: nt	E: 2%

30: CCOc1ccc(CN(C)C(=O)CN2C(=O)NC(c3ccccc3)(c3ccccc3)C2=O)cc1
  A: nt	B: ?	C: ?	D: 12%	E: 0%[56.1 µM]

Bioassay records as filed in PubChem BioAssay.
